Screening results as filed in PubChem BioAssay.
MC4R antagonist = blocks human MC4R cAMP signaling; P32245; actives 0.48% (n = 360,000); inhibition, % at 6.5 µM; MC4R-expressing cells, MTII-stimulated cAMP, LANCE TR-FRET; AID 540295;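 active = inhibition above its plate's cutoff, the mean of tested wells on that plate plus 3 SD, cut at about 29% in these data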;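 note: 0% = Melanotan II alone and 100% = Melanotan II plus saturating MCL0020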
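Assay system: U2OS-MC4R stable cell line; Also added: Melanotan II; Technique: Eu-cAMP/anti-cAMP TR-FRET, emission 671 nm; Times: 30-min compound, 1-h challenge, 1-h detection, room temperature.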
UUG fidelity = yeast start codon fidelity modulation; activity score, % at 18.7 µM; actives 0.13% (n = 350,000); S. cerevisiae UUG-firefly luciferase reporter, luminescence/redox ratio; AID 602363;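 active means replicate mean at a twofold rise or more, about +100% in these data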;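 further: firefly luciferase made from a UUG start codon reports start codon fidelity; reporter light over untreated wells divided by growth signal over untreated wells; some hits fall short of that in this replicate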
HDAC3 inhib = inhibitors of human histone deacetylase 3; O15379; AID 2718; recombinant HDAC3, fluorogenic peptide/trypsin coupled, fluorescence; actives 0.15% (n = 320,000); inhibition, % at 8.3 µM; in the data active = inhibition above about 26%, passing the limit was not always enough
ALR inh = blocks human ALR sulfhydryl oxidase activity | inhibition, % (no concentration beside the values) | 3.8% of 290,000 active | purified ALR, DTT oxidation, H2O2 HRP-luminol luminescence | AID 485317 | P55789;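 active = mean and each replicate at 75% or more; inconclusive = only one of the two met; inactive = neither met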;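 also: stock transfer was 7.5 nL into about 7.5 µL; 0% = neutral wells and 100% = wells with inactivated enzyme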
MC4R ag barr = human MC4R agonism via beta-arrestin | U2OS MC4R beta-arrestin complementation, luminescence; percent of melanotan II response, DMSO zero | activation, % at 8.9 µM | actives 0.98% (n = 360,000);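 active = activation above a per-plate cutoff, the mean activation of sample wells on that plate plus 3 SD, cut at about 8% in these data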
NALP1 inh = blocks the NALP1 inflammasome reconstituted in yeast; S. cerevisiae NALP1/ASC/caspase-1 growth, X-gal OD620, 72 h; inhibition, % at 10 µM; actives 0.61% (n = 280,000); AID 2071; in the data active = inhibition mostly above about 24%, no sharp cut-off; inactive = mostly below about 32%
An asterisk follows results filed as active; . = no result. Sampled rows, rich in hits. Any-hit rate of the full collection: about 4.2%.

SMILES | MC4R antagonist | UUG fidelity | HDAC3 inhib | ALR inh | MC4R ag barr | NALP1 inh
C[C@@H]1CN([C@H](C)CO)S(=O)(=O)c2ccc(C#Cc3ccncc3)cc2O[C@@H]1CN(C)C(=O)C1CCOCC1 | . | -2 | . | . | . | .
Clc1ccc(-c2cnc3ccccc3n2)cc1 | 7 | . | -11 | -5 | 0 | 25
Oc1ccc(-c2cnc3ccccc3n2)cc1 | -3 | . | 3 | 98* | 3 | .
C[C@H](CO)N1C[C@H](C)[C@H](CN(C)Cc2ccncc2)Oc2ccc(NC(=O)Cc3ccccc3)cc2C1=O | . | -2 | . | . | . | .
COCC#Cc1ccc2c(c1)O[C@@H](CN(C)Cc1ccc(F)cc1)[C@H](C)CN([C@@H](C)CO)S2(=O)=O | . | 7 | . | . | . | .
Cc1ccc(NC2CCCN(C(=O)CCN3CCOCC3)C2)cc1C (stereo not given) | 4 | 4 | -3 | 99* | -3 | -8
Cc1ccc(NC2CCCN(C(=O)CCn3nccc3C)C2)cc1C (stereo not given) | 11 | -11 | 2 | 99* | 1 | 5
COc1cccc(S(=O)(=O)Nc2ccc3c(c2)C(=O)N(C)[C@H]2CC[C@@H](CC(=O)O)O[C@H]2CO3)c1 | . | 4 | . | . | . | .
CSc1nc2sc3c(c2c2nnnn12)CCCC3 | 1 | . | 2 | -19 | 8.3* | 8
Nc1nc2ccc(S(=O)(=O)N3CCCCC3)cc2s1 | -9 | -17 | 1 | 98* | -1 | 32
CN(C)/C=C1\N=C(c2cccs2)OC1=O | -8 | -15 | 9 | 93* | -2 | -9
CN(C)/C=C1/N=C(c2ccccc2)OC1=O | -9 | -8 | 6 | -7 | 2 | -2
C[C@@H]1O[C@@H](OC2C(O)C(OCCc3ccc(O)c(O)c3)OC(CO)C2OC(=O)/C=C/c2ccc(O)c(O)c2)[C@H](O)[C@H](O)[C@H]1O (stereo not given in full) | . | . | 1 | 99* | . | .
Nc1ccc2c(=O)[nH][nH]c(=O)c2c1 | 0 | -15 | . | . | 0 | .
Nc1ccc2oc3ccc(N)cc3c(=O)c2c1 | -9 | -18 | 5 | 99* | -2 | 1
CC(C)Oc1ccc(Cl)cc1Nc1nc(NCCO)nc(N2CCCC2)n1 | 5 | 11 | 28* | 3 | -2 | .
O=c1cc(-c2cccc([N+](=O)[O-])c2)[nH][nH]1 | 1 | -17 | 1 | 82* | 0 | 34
Nc1cc(-c2cccc([N+](=O)[O-])c2)[nH]n1 | 4 | . | 7 | 72 | -3 | 20
C[C@@H]1CN([C@H](C)CO)C(=O)c2cccc(NC(=O)C3CCOCC3)c2O[C@@H]1CN(C)C(=O)NC1CCCCC1 | . | -13 | . | . | . | .
CCn1c(C)c(C(C)=O)c(N2CCN(c3ccccc3)CC2)nc1=S | 2 | . | 0 | 97* | -2 | 5

Record cards, as listed above:
C[C@@H]1O[C@@H](OC2C(O)C(OCCc3ccc(O)c(O)c3)OC(CO)C2OC(=O)/C=C/c2ccc(O)c(O)c2)[C@H](O)[C@H](O)[C@H]1O (stereo not given in full) is listed with MC4R antagonist: .; UUG fidelity: .; HDAC3 inhib: 1; ALR inh: 99*; MC4R ag barr: .; NALP1 inh: .
C[C@@H]1CN([C@H](C)CO)S(=O)(=O)c2ccc(C#Cc3ccncc3)cc2O[C@@H]1CN(C)C(=O)C1CCOCC1 is listed with MC4R antagonist: .; UUG fidelity: -2; HDAC3 inhib: .; ALR inh: .; MC4R ag barr: .; NALP1 inh: .
CSc1nc2sc3c(c2c2nnnn12)CCCC3 is listed with MC4R antagonist: 1; UUG fidelity: .; HDAC3 inhib: 2; ALR inh: -19; MC4R ag barr: 8.3*; NALP1 inh: 8

Following part.
SMILES | MC4R antagonist | UUG fidelity | HDAC3 inhib | ALR inh | MC4R ag barr | NALP1 inh
CC(=O)c1c(N2CCCCC2)nc(=S)n(-c2ccccc2)c1C | 2 | -1 | 4 | 1 | 0 | -12
CC(=O)c1c(N2CCCC2)nc(=S)n(-c2ccccc2)c1C | 6 | 0 | -4 | -3 | -1 | 38*
Cc1noc(C)c1NC(=O)N(C)C[C@@H]1Oc2ccc(NC(=O)C3CC3)cc2C(=O)N([C@@H](C)CO)C[C@H]1C | . | -12 | . | . | . | .
O=C(Nc1ccccc1N1CCCC1)c1cccnc1 | -2 | -24 | 1 | 98* | -1 | 9
O=C(Nc1ccccc1Br)c1ccc(N2CCCC2=O)cc1 | -2 | -31 | 4 | -5 | -2 | .
COc1ccc(NC(=O)CSCC(=O)Nc2ccccc2N2CCCC2)cc1 | 10 | -9 | 6 | 99* | -1 | .
O=C(Nc1ccccc1N1CCCCC1)c1cnccn1 | 4 | -11 | 4 | 97* | 1 | -11
O=C(Nc1ccccc1N1CCCC1)c1ccc(N2CCCC2=O)cc1 | 5 | -9 | 0 | 99* | 3 | .
COc1ccc(NC(=O)CSCC(=O)Nc2ccccc2N2CCCCC2)cc1 | 14 | -3 | 1 | . | 2 | .
O=C(Nc1ccccc1Cl)c1cnccn1 | 6 | -18 | 6 | -3 | 1 | -16
COC(=O)C[C@H]1CC[C@H]2[C@H](COc3ccc(NC(=O)c4ccc(F)cc4)cc3C(=O)N2C)O1 | . | -13 | . | . | . | .
C[C@H]1CN([C@@H](C)CO)C(=O)Cc2cc(NC(=O)Nc3ccccc3)ccc2O[C@@H]1CN(C)C(=O)Nc1ccc(F)cc1 | . | 9 | . | . | . | .
COc1ccc(NC(=O)CSCC(=O)Nc2sccc2C#N)cc1 | -3 | 13 | 3 | 99* | -1 | .
COc1cccc(C(=O)Nc2ccccc2N2CCCC2)c1 | 6 | -11 | 0 | 98* | -1 | 0
COc1ccc(CCC(=O)Nc2sccc2C#N)cc1 | . | . | 9 | -9 | . | 4
COc1cccc(C(=O)NC(=S)Nc2ccccc2N2CCCC2)c1 | 18 | . | 17 | 66 | 1 | -17
CCC(=O)N(C)C[C@H]1Oc2cc(C#CC3CCCC3)ccc2S(=O)(=O)N([C@@H](C)CO)C[C@H]1C | . | 9 | . | . | . | .
O=C(C[C@@H]1C=C[C@H](NS(=O)(=O)c2ccc(F)cc2)[C@@H](CO)O1)NCCc1ccncc1 | . | -17 | . | . | . | .
CC(=O)Nc1ccc(NC(=O)c2ccccc2Br)cc1 | 10 | -5 | . | . | -1 | .
CC(=O)Nc1ccc(SCC(=O)Nc2cc(C(C)(C)C)nn2-c2ccccc2)cc1 | 5 | . | -3 | 89* | -1 | 10

An excerpt taken from the entries so far, as a working copy:
SMILES | MC4R antagonist | UUG fidelity | HDAC3 inhib | ALR inh | MC4R ag barr | NALP1 inh
Cc1noc(C)c1NC(=O)N(C)C[C@@H]1Oc2ccc(NC(=O)C3CC3)cc2C(=O)N([C@@H](C)CO)C[C@H]1C | . | -12 | . | . | . | .
O=C(Nc1ccccc1N1CCCC1)c1cccnc1 | -2 | -24 | 1 | 98* | -1 | 9

Further compounds
SMILES | MC4R antagonist | UUG fidelity | HDAC3 inhib | ALR inh | MC4R ag barr | NALP1 inh
CC(=O)Nc1ccc(SCC(=O)NC(=O)c2ccccc2Br)cc1 | -3 | -14 | 1 | 98* | -1 | .
Cn1c(SCC(=O)Nc2cc(C(C)(C)C)nn2-c2ccccc2)nc2ccccc21 | 7 | . | 11 | -27 | 1 | 21
CC(=O)Nc1ccc(SCC(=O)Nc2cc(C)on2)cc1 | 7 | . | -11 | 99* | -2 | 2
CNC[C@H]1OCCCC[C@H](C)Oc2ccc(NC(=O)NC3CCCCC3)cc2C(=O)N([C@H](C)CO)C[C@@H]1C | . | 7 | . | . | . | .
C[C@H]1CN([C@@H](C)CO)S(=O)(=O)c2ccc(C#Cc3ccccc3)cc2O[C@H]1CN(C)CC1CC1 | . | 18 | . | . | . | .
N/C(Cc1ccc(Cl)cc1Cl)=N\OC(=O)c1ccc(Br)o1 | 13 | 1 | . | . | 8.3* | .
N/C(Cc1cccc2ccccc12)=N\OC(=O)c1ccc(Br)o1 | . | . | . | . | . | 24
CO[C@@H]1CN(C)C(=O)c2cc(NS(C)(=O)=O)ccc2OC[C@H](C)N(C(=O)C2CC2)C[C@H]1C | . | 10 | . | . | . | .
COC(=O)C1=C(C(=O)OC)[C@@H]2N(C)c3ccc(OC)cc3[C@@]23C[C@@H](C(=O)OC)N=C3N1 | 6 | -10 | -4 | 77* | 1 | .
COC(=O)C1=C(C(=O)OC)[C@@H]2N(C)c3ccccc3[C@@]23C[C@@H](C(=O)OC)N=C3N1 | 7 | 0 | -1 | 11 | -1 | .
C[C@H](CO)N1C[C@H](C)[C@@H](CN(C)C)Oc2cc(C#CC3CC3)ccc2S1(=O)=O | . | 5 | . | . | . | .
O=C(NCCN1CCOCC1)c1ccc(CSc2nc3ccncc3n2Cc2ccc(F)cc2)cc1 | 17 | . | -2 | 99* | 0 | -5
